Test results: US10183913B2, “Pyrazole compound” (Sumitomo Dainippon Pharma Co., Ltd., priority 2010, dated 2019)

Sequences of proteins named here, by UniProt entry; tags and fusion partners are left off. A change or cut given only in a name is not applied to a line headed by its entry.
UniProt P28335: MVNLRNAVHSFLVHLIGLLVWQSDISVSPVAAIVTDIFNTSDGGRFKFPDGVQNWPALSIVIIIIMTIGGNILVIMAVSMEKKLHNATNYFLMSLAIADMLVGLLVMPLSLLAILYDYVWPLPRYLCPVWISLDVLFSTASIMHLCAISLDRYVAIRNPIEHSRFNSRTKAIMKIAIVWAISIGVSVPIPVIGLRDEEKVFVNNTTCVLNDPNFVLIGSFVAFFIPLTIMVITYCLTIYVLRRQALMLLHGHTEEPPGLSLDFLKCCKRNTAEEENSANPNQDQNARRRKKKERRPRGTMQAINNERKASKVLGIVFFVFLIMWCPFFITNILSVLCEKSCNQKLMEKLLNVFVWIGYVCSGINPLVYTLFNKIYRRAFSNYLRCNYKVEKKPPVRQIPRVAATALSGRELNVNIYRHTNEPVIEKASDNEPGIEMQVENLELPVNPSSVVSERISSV

What was measured:
[1] = molecular target: T1, human serotonin 2C receptor (h-5-HT2C) (Homo sapiens (Human), UniProt P28335); experiment: [3H] mesulergine binding assay to evaluate affinity for human 5-HT2C receptor; conditions: h-5-HT2C/CHO membrane preparation, read-out: Test Ex. 2: 5-HT2C receptor binding inhibition constant Ki
Description: Mesulergine Binding Assay to Evaluate Affinity for Human 5-HT2C Receptor
(§1) Preparation of the Cells and Membrane Preparations
In the experiment, human serotonin 2C receptor (h-5-HT2C) was expressed in CHO cells (h-5-HT2C/CHO). The cells were incubated with UltraCHO Lipuid (trademark) (manufactured by BioWhitakker) containing 1% FBS, 400 μg/mL Geneticin, 100 U/mL penicillin—100 μg/mL streptomycin (all manufactured by Sigma Aldrich) and 250 μg/mL Zeosin (manufactured by InvivoGen) in an incubator containing 5% CO2; detached and collected using 50 mmol/L Tris-HCl (pH=7.4); homogenized with a homogenizer manufactured by Teflon (trademark); and then centrifuged (48,000×g, 25 min, 4° C.). The precipitate was suspended again in the appropriate amount of 50 mmol/L Tris-HCl (to give a membrane preparation), and stored at −80° C. until used. The amount of protein in the membrane preparation was assayed by Dye Reagent Concentrate (manufactured by BIO-RAD) using bovine serum albumin (manufactured by Sigma Aldrich) as a standard.
2-2. 5-HT2C Receptor Binding Assay
A solution of 200 μL in total was prepared by mixing 50 μL of [^3H] mesulergine (manufactured by GE Healthcare) diluted with 50 mmol/L Tris-HCl (pH=7.4) (final concentration: about 2 nmol/L), 149 μL of the h-5-HT2C/CHO membrane preparation (protein amount: 20 μg/well), and 1 μL of the test drug dissolved in dimethylsulfoxide. The solution was reacted at 37° C. for 30 minutes, and then quickly suction-filtered under reduced pressure through a glass fiber filter coated with 1% aq. bovine serum albumin. The glass fiber filter was washed twice with 250 μL of 50 mmol/L Tris-HCl (pH=7.4), placed in a plastic vial containing 4 mL of liquid scintillator (ACS-II, manufactured by Amersham) or Ecoscint A (manufactured by National Diagnostics), and the remaining radioactivity on the filter paper was assayed with a liquid scintillation counter. The non-specific binding of [^3H] mesulergine was defined as a binding amount in the presence of 10 μmol/L SB206553 (manufactured by Sigma Aldrich). The IC50 value was calculated according to Hill analysis, and the binding inhibition constant (Ki) was calculated according to the following formula: Binding inhibition constant (Ki)=IC50/(1+S/Kd) wherein S is a concentration of the added [^3H] mesulergine, and Kd is a binding dissociation constant of [^3H] mesulergine which was calculated from a saturated binding assay using the same cell membrane.

[2] = molecular target: human serotonin transporter (h-SERT) (Homo sapiens (Human), UniProt P31645); experiment: [3H] citalopram binding assay to evaluate human serotonin reuptake inhibitory action (h-SERT binding assay); conditions: read-out: Test Ex. 1: h-SERT binding inhibition constant Ki
Description: Citalopram Binding Assay to Evaluate Human Serotonin Reuptake Inhibitory Action
as §1
In the experiment, human serotonin transporter (h-SERT) was expressed in CHO cells (h-SERT/CHO). The cells were incubated with F12 containing 10% FCS, 500 μg/mL Geneticin and 100 U/mL penicillin—100 μg/mL streptmycin (all manufactured by Sigma Aldrich) in an incubator containing 5% CO2; detached and collected using a SERT buffer [50 mmol/L Tris-HCl comprising 120 mmol/L NaCl and 5 mmol/L KCl (pH=7.4)]; homogenized with a homogenizer manufactured by Teflon (trademark); and then centrifuged (50,000×g, 30 min, 4° C.). The precipitate was suspended again in the appropriate amount of SERT buffer (to give a membrane preparation), and stored at −80° C. until used. The amount of protein in the membrane preparation was assayed by Dye Reagent Concentrate (manufactured by BIO-RAD) using bovine serum albumin (manufactured by Sigma Aldrich) as a standard.
1-2. h-SERT Binding Assay
The [^3H] citalopram binding was measured according to the method disclosed in Owens M. J. et al., J. Pharm. […] The solution was reacted at room temperature for 60 minutes, and then quickly suction-filtered under reduced pressure through a glass fiber filter coated with 0.05% aq. polyethyleneimine. The glass fiber filter was washed twice with […] of the SERT buffer, placed in a plastic vial containing 4 mL of liquid scintillator (ACS-II, manufactured by Amersham) or Ecoscint A (manufactured by National Diagnostics), and the remaining radioactivity on the filter paper was assayed with a liquid scintillation counter.

[3] = molecular target: T1, human serotonin 2C receptor (h-5-HT2C); experiment: 5-HT2C receptor agonistic action assay (FLIPR Calcium 4 Assay kit, h-5-HT2C/CHO cells); type: cell-based; conditions: test material 10 μmol/L; 100% = 10 μmol/L 5-HT, −100% = 10 μmol/L SB206553; below 0% = inverse agonistic action
Description: 3-1. The Cells and Inoculation Thereof
In the experiment, human serotonin 2C receptor (h-5-HT2C) was expressed in CHO cells (h-5-HT2C/CHO). The cells were incubated with UltraCHO Lipuid (trademark) (manufactured by BioWhitakker) containing 1% FBS, 400 μg/mL Geneticin, 100 U/mL penicillin—100 μg/mL streptomycin (all manufactured by Sigma Aldrich) and 250 μg/mL Zeosin (manufactured by InvivoGen) in an incubator containing 5% CO2. On the day before using the cells, they were detached and collected using 250 μg/mL Trypsin solution (manufactured by Nacalai Tesque), then inoculated in a 96 well flat clear bottom black polystyrene TC-treated microplates (manufactured by Corning) at 40000 cells/well/60 μL in an incubator containing 5% CO2 for 16 hours to 24 hours.
3-2. 5-HT2C Receptor Agonistic Action Assay
The 5-HT2C receptor agonistic action was evaluated with FLIPR Calcium 4 Assay kit (manufactured by Molecular Devices). […] Then, the cells were set in FLIPR TETRA (trademark) (manufactured by Molecular Devices), to the cells was added the test material diluted with HHBP buffer, 2.5 mmol/L Probenecid (manufactured by Sigma) (concentration after dilution: 10 μmol/L) at an amount of 20 μL/well, and the fluorescence was measured. Then, in order to evaluate the antagonistic action of the test material, 20 μL/well of 5-HT solution (manufactured by Sigma, final concentration: 0.1 nmol/L) was further added to the cells, and the fluorescence was measured.
The 5-HT2C receptor agonistic action of each test material was calculated as a rate of fluorescence enhancement wherein 100% was defined as a value when the cells were given 10 μmol/L 5-HT. Furthermore, the 5-HT2C receptor inverse agonistic action was calculated as a rate of fluorescence decay wherein −100% was defined as a value when the cells were given 10 μmol/L SB206553 (manufactured by Sigma Aldrich). […]

Row | SMILES | Ki [1] [nM] | Ki [2] [nM] | Test Ex. 3: 5-HT2C receptor agonistic action [3] [%]
1 | CNCc1cc(OCc2cc(Cl)ccc2F)n(CC2CC2)n1 [Example 131, 1-{5-[(5-chloro-2-fluorobenzyl)oxy]-1-(cyclopropylmethyl)-1H-pyrazol-3-yl}-N-methylmethanamine] | 10 | 3.7 | −70
2 | CNCc1cc(OCc2cc(Cl)ccc2F)n(CC(C)C)n1 [Example 256, 1-{5-[(5-chloro-2-fluorobenzyl)oxy]-1-(2-methylpropyl)-1H-pyrazol-3-yl}-N-methylmethanamine] | 12 | 1.6 | 
3 | CNCc1cc(OCc2cc(F)ccc2F)n(CC(C)(C)C)n1 [Example 258, 1-{5-[(2,5-difluorobenzyl)oxy]-1-(2,2-dimethylpropyl)-1H-pyrazol-3-yl}-N-methylmethanamine] | 16 | 0.66 | −118
4 | CNCc1cc(OCc2cc(Cl)ccc2F)n(CC(C)(C)C)n1 [Example 259, 1-{5-[(5-chloro-2-fluorobenzyl)oxy]-1-(2,2-dimethylpropyl)-1H-pyrazol-3-yl}-N-methylmethanamine] | 6.2 | 2.4 | 
5 | CNCc1cc(OCc2cc(F)ccc2F)n(CCC(C)(C)C)n1 [Example 266, 1-{5-[(2,5-difluorobenzyl)oxy]-1-(3,3-dimethylbutyl)-1H-pyrazol-3-yl}-N-methylmethanamine] | 4.5 | 0.69 | 
6 | CNCc1cc(OCc2cc(F)ccc2F)n(CCC(C)C)n1 [Example 269, 1-{5-[(2,5-difluorobenzyl)oxy]-1-(3-methylbutyl)-1H-pyrazol-3-yl}-N-methylmethanamine] | 6.7 | 0.59 | −77
7 | CNCc1cc(OCc2cc(Cl)ccc2F)n(CCC(C)(C)OC)n1 [Example 275, 1-{5-[(5-chloro-2-fluorobenzyl)oxy]-1-(3-methoxy-3-methylbutyl)-1H-pyrazol-3-yl}-N-methylmethanamine] | 11 | 22 | 
8 | CNC(C)c1cc(OCc2cc(F)ccc2F)n(CCC2CCCC2)n1 (stereo not shown) [Example 315, 1-{1-(2-cyclopentylethyl)-5-[(2,5-difluorobenzyl)oxy]-1H-pyrazol-3-yl}-N-methylethanamine] | 3.6 | 11 | 
